The source of these data is article PMC6397219, “Rapid one-step ^18F-radiolabeling of biomolecules in aqueous media by organophosphine fluoride acceptors” (Nature Communications, 2019).

The nature of this data set: Biodistribution of 18F-DBPOF-HSA in rats. The data set is classed as in vivo, rat.

Turning to “18F-DBPOF-HSA: 18F-labeled human serum albumin for blood pool imaging”, the SUV in blood is, setting by setting: (0.5 h) 1.4 ± 0.7; (1 h) 1.0 ± 0.1.
